Reference: article PMC12645437, “Orthogonal IMiD-Degron Pairs Induce Selective Protein Degradation in Cells” (ACS Chemical Biology, 2025)

How the values were obtained:
[1] = system: embryonic stem cells (ESCs); assay: TMTpro quantitative proteomics, 16 h; conditions: 1 μM, of 10442 proteins assessed
Jurkat cells = assay: TMTpro quantitative proteomics, 16 h; conditions: 1 μM, Welch's t test

For `Nc1cccc2c1C(=O)N(C1CCC(=O)NC1=O)C2=O` (centres unmarked) [Compound 2, pomalidomide], the “proteins significantly degraded (quantitative proteomics)” value [1] was “approximately 25 proteins” and the “proteins significantly degraded (quantitative proteomics)” value (Jurkat cells) was “at least 20 proteins”.
